The text below walks through data of article PMC6155600, “Design, Synthesis and Cellular Characterization of a Dual Inhibitor of 5-Lipoxygenase and Soluble Epoxide Hydrolase” (Molecules : A Journal of Synthetic Chemistry and Natural …, 2016).

Chains of the proteins cited; added tags and fusions are not shown.
UniProt P34913, whole entry: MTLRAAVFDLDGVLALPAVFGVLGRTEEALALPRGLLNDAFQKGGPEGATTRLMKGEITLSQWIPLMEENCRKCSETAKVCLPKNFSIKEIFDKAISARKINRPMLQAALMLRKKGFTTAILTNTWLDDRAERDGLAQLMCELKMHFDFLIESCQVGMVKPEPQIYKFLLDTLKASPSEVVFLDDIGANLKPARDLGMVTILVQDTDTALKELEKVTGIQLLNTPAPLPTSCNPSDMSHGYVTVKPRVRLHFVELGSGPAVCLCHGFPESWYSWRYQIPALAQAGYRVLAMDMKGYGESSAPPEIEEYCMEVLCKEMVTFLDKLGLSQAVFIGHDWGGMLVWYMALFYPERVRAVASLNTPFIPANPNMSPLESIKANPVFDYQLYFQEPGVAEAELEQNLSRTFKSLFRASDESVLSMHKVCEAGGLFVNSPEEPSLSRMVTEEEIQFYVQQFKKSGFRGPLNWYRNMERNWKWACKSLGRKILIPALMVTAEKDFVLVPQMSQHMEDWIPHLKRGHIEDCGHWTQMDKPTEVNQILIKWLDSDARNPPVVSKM

In this assay the target is T1, soluble epoxide hydrolase (sEH) (Homo sapiens, UniProt P34913).
T1 construct: gene EPHX2
Kind of assay: fluorescence-based enzyme activity assay with recombinant human sEH (PHOME substrate). In kind it is biochemical.

Structures are written as SMILES.

By IC50 is commonly meant the midpoint of a concentration-inhibition curve.

Take `O=C(Nc1ccc(I)cc1)NC1CCCCC1` [CIU, N-cyclohexyl-N′-(4-iodophenyl)urea, reference compound]: the IC50 was 140 nM.
